Data: patent US7816096B2, “Assay solution compositions and methods for GPCR arrays” (priority 2003, dated 2010)

Amino acid sequences for entries named in this document (tags omitted).
UniProt P35372, whole entry, species assumed: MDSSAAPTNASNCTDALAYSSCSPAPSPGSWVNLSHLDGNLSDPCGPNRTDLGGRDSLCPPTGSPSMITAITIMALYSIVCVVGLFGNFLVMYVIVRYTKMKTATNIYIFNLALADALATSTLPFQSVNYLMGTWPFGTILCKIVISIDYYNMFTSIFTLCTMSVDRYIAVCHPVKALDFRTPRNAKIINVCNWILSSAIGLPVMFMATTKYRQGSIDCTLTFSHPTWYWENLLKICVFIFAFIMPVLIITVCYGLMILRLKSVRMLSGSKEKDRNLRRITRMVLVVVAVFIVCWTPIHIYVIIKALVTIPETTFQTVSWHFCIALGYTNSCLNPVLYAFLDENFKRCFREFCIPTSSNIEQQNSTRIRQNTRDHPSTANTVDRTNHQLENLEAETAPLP

Molecular target: mu opioid receptor (Homo sapiens, UniProt P35372)
Conditions: 100 nM dynorphin A in agonist cocktail; 2 nM 35S-GTPγS

**Q.** Which “agonist-induced binding of 35S-GTPγS to mu opioid receptor microspots” value does the source give for dynorphin A here?
**A.** increased signals
